Values of other authors as cited in paper PMC11222241.

Protein sequences, listed by entry. Tags and fused reporters are not part of them. Residues count along the entry.
UniProt P05067, 672-711: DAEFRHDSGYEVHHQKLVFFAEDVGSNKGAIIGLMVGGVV
UniProt P02649, 19-317: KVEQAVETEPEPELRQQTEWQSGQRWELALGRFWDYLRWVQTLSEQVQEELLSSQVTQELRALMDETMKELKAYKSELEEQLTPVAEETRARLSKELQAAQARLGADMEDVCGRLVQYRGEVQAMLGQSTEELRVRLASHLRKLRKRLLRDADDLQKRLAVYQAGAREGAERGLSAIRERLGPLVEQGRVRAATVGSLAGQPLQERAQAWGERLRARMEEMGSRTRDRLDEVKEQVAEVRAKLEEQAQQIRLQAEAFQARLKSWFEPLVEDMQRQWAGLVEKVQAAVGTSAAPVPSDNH

Molecular target: Amyloid beta peptide (Homo sapiens) (UniProt P05067)

pKd: 7.70
Substance: APOE3 (from UniProt P02649)

pKd: −log10 of the molar value.
